How the values were obtained:
[1] = tested on: αvβ6 (+) BxPC-3 tumors; experiment: In vivo targeted radionuclide therapy; set-up: species or system mice
Experimental: (§1) Female nu/nu nude mice (6-8 weeks old) were purchased from Charles River Laboratories (Wilmington, MA, USA) and handled according to the UC Davis Institutional Animal Care and Use Committee. BxPC-3 cells (5×10^6) in 100 μl 1:1 GFR-Matrigel: serum-free RPMI were implanted subcutaneously into the left shoulder flank and allowed to grow for approximately 2 weeks (therapy study) and 3 weeks (0.5-1 cm in diameter, for imaging and biodistribution studies). All cells were evaluated with flow cytometry before injection to confirm integrin expression levels. Food and water were available ad libitum.
For in vivo targeted radionuclide therapy, mice were implanted subcutaneously with BxPc-3 tumor cells 14 days before start of treatment. Mice were randomly chosen and divided into four treatment groups: Control Saline (Group 1, n=5); Control Peptide DOTA-ABM-5G (Group 2, n=6); 1×74 MBq [^177Lu]Lu DOTA-ABM-5G (Group 3, n=10); and 2×37 MBq [^177Lu]Lu DOTA-ABM-5G (Group 4, n=7). Average tumor volume at the start of the treatment was 14-218 mm^3. Group 2 received 20 μg of peptide DOTA-ABM-5G per mouse as a control. Group 3 received 74 MBq on day 14 post-tumor implant (treatment day 0), and Group 4 received two doses of 37 MBq on day 14 and 21 post-tumor implant (treatment days 0 and 7), at a specific activity of 18.5 MBq/nmol. Body weights and tumor volumes were measured the day before treatment, and twice a week post-treatment throughout the study. Tumor volume (TV) was determined according to the equation TV=(π/6)*L*W*H, where L is the longest axis, W is the axis perpendicular to L and H is perpendicular to the plane of L and W. End point determination was based on the longest axis of TV exceeding 2 cm, active ulceration, or compromised health of the mouse, including >20% loss of body weight from the start of the study. Survival curves are depicted as a Kaplan-Meier plot, using start of treatment as day 0.

Amino acid sequences for entries named in this document (tags omitted). Residues count along the entry.
UniProt P06756, 31-1048: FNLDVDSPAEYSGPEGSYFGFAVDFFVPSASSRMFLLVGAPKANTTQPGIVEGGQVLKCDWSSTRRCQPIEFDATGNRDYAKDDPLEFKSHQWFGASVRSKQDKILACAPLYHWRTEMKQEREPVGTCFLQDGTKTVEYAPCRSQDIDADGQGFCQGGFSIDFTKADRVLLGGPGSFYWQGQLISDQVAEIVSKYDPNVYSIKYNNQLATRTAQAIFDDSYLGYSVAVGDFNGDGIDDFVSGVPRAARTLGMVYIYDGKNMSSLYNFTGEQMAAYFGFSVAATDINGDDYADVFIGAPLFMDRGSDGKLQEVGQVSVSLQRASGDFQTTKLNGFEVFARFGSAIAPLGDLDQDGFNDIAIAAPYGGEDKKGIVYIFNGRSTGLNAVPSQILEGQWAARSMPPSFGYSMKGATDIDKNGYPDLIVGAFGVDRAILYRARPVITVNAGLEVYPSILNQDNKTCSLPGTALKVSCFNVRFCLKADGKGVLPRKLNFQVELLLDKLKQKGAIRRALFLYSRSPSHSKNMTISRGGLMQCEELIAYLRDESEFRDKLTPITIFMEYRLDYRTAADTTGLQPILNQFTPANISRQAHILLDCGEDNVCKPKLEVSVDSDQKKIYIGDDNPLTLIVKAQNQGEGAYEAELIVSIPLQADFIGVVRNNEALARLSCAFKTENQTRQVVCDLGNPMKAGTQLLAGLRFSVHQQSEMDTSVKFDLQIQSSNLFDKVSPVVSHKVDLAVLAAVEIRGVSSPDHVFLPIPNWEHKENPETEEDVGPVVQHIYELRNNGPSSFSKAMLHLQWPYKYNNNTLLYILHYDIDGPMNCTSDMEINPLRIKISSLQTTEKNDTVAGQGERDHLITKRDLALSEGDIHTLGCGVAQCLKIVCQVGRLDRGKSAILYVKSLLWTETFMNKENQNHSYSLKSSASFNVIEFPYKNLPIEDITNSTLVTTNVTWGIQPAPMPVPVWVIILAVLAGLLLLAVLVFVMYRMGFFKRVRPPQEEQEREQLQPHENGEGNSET
UniProt P18564, 22-788: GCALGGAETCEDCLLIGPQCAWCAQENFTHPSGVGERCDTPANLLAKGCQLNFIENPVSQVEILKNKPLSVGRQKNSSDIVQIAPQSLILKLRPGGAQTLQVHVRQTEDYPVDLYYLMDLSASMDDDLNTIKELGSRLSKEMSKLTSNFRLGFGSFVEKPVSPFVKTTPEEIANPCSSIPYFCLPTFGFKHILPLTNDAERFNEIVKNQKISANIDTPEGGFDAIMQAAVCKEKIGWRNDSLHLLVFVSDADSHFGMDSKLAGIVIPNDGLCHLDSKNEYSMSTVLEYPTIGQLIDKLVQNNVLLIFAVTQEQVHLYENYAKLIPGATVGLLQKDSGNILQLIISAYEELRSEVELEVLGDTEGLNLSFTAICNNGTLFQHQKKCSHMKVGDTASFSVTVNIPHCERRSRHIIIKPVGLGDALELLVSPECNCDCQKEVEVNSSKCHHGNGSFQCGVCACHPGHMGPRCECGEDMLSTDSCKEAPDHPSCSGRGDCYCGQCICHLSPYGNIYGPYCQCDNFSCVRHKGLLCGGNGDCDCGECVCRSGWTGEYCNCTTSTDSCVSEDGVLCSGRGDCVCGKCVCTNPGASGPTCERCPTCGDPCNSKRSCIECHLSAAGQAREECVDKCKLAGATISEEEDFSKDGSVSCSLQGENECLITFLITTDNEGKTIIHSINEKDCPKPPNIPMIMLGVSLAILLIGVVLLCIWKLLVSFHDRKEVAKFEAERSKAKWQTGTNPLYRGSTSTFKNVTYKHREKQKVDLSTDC

[2] = target: integrin αvβ6 (Homo sapiens, UniProt P06756+P18564); experiment: Competitive binding ELISA against biotinylated LAP; conditions: triplicate, read-out: binding affinity for integrin αvβ6 (IC50)
[3] = tested on: BxPC-3 (αvβ6 (+)) tumors; experiment: Biodistribution in mice bearing BxPC-3 tumors; assay type: in vivo
Experimental: as §1
For blocking studies, respective non-chelated cold peptide (30 mg/kg, 10 mg/mL (DOTA-5G) and 48 mg/kg, 16 mg/mL (DOTA-ABM-5G) solution in PBS) was injected 10 min. before the formulated radiotracer. At each time point, the mice (n=3/time point/radiotracer) were anesthetized and sacrificed. The tissues were collected, rinsed with PBS, and the radioactivity of each measured with a gamma counter. Radioactivity concentrations were calibrated, decay-corrected, and expressed as percent of injected dose per gram of tissue (% ID/g).

[4] = In vitro serum stability, human serum; assay type: in vitro ADME; conditions: 2 h, 37° C., read-out: stability in human serum (intact radiotracer)
Experimental: Mouse or human serum (500 μl, both purchased from Millipore Sigma) was combined with an aliquot of the formulated radiotracer (100-200 μCi) and incubated at 37° C. Aliquots (100-200 μl) were drawn for analysis at 1 and 2 h post-incubation for the ^68Ga radiotracers and 1 and 24 h post-incubation for ^177Lu radiotracers, mixed with absolute ethanol (500 μl, 4° C.), and centrifuged (2300× g, 3 min) to precipitate out serum proteins. The supernatant was diluted with HPLC Solvent A and analyzed by radio-HPLC to determine the fraction of intact radiotracer as disclosed in Hausner et al., “In vitro and in vivo evaluation of the effects of aluminum [^18F]fluoride radiolabeling on an integrin αvβ6-specific peptide” Nuclear medicine and biology.

[5] = tested on: BxPC-3 tumors; experiment: Small animal PET/CT imaging; assay type: in vivo, mice
Experimental: as §1
For small animal imaging, aliquots of the formulated radiotracer (7.4-9.25 MBq in 100 μl) in PBS solution (pH 7.2) were injected intravenously (i.v.) via a catheter into the tail vein of mice (n=3/time point/radiotracer) anesthetized with 2-3% isoflurane in medical grade oxygen. Animals were imaged two at a time, side by side in a feet-first prone position on the scanner bed. Anesthesia was maintained during the scan at 1.5-2.5% isoflurane in medical-grade oxygen. A static, single-frame 15 min. emission scan was acquired at 1 h, and a 30 min. scan at 2 h post-injection (p.i.) for mice injected with [^68Ga]Ga DOTA-5G. A static 30 min. scan was acquired at 2 h and a 60 min. scan at 4 h p.i. for mice injected with [^68 Ga]Ga DOTA-ABM-5G. 57 Cobalt transmission scans for attenuation correction and CT scans for anatomical reference were also acquired at each time point.

## CC(C)C[C@H](NC(=O)[C@H](CC(=O)O)NC(=O)CNC(=O)[C@H](CCCNC(=N)N)NC(=O)[C@H](CC(C)C)NC(=O)[C@H](CC(N)=O)NC(=O)[C@@H]1CCCN1C(=O)[C@@H](NC(=O)CNC(=O)[C@H](CC(N)=O)NC(=O)CNC(=O)CCOCCOCCOCCOCCOCCOCCOCCOCCOCCOCCOCCOCCOCCOCCOCCOCCOCCOCCOCCOCCOCCOCCOCCOCCOCCOCCOCCOCCNC(=O)[C@H](CCCCNC(=O)[C@H](CC(=O)O)NC(=O)CCCNC(=O)CCCc1ccc(I)cc1)NC(=O)CN1CCN(CC(=O)O)CCN(CC(=O)O)CCN(CC(=O)O)CC1)C(C)C)C(=O)N[C@@H](CCC(N)=O)C(=O)N[C@H](C(=O)N[C@@H](CC(C)C)C(=O)NCC(=O)N[C@@H](CCC(N)=O)C(=O)N[C@@H](CCCNC(=N)N)C(=O)N[C@H](C(=O)NCC(=O)N[C@@H](CCCNC(=N)N)C(=O)N[C@H](C(=O)NCCOCCOCCOCCOCCOCCOCCOCCOCCOCCOCCOCCOCCOCCOCCOCCOCCOCCOCCOCCOCCOCCOCCOCCOCCOCCOCCOCCOCCC(N)=O)[C@@H](C)O)C(C)C)C(C)C [DOTA-ABM-5G]
[1]; Group 2, peptide control, 20 μg per mouse
  median survival post-treatment: 56 days
[1]; Group 2, peptide control, 20 μg per mouse, from start of treatment
  time by which all mice had met the end point criterion: ≤ 68 days
[1]; any group, 120 days
  adverse events and weight loss during the study: No adverse events and weight loss

## CC(C)C[C@H](NC(=O)[C@H](CC(=O)O)NC(=O)CNC(=O)[C@H](CCCNC(=N)N)NC(=O)[C@H](CC(C)C)NC(=O)[C@H](CC(N)=O)NC(=O)[C@@H]1CCCN1C(=O)[C@@H](NC(=O)CNC(=O)[C@H](CC(N)=O)NC(=O)CNC(=O)CCOCCOCCOCCOCCOCCOCCOCCOCCOCCOCCOCCOCCOCCOCCOCCOCCOCCOCCOCCOCCOCCOCCOCCOCCOCCOCCOCCOCCNC(=O)CN1CCN(CC(=O)O)CCN(CC(=O)O)CCN(CC(=O)O)CC1)C(C)C)C(=O)N[C@@H](CCC(N)=O)C(=O)N[C@H](C(=O)N[C@@H](CC(C)C)C(=O)NCC(=O)N[C@@H](CCC(N)=O)C(=O)N[C@@H](CCCNC(=N)N)C(=O)N[C@H](C(=O)NCC(=O)N[C@@H](CCCNC(=N)N)C(=O)N[C@H](C(=O)NCCOCCOCCOCCOCCOCCOCCOCCOCCOCCOCCOCCOCCOCCOCCOCCOCCOCCOCCOCCOCCOCCOCCOCCOCCOCCOCCOCCOCCC(N)=O)[C@@H](C)O)C(C)C)C(C)C [DOTA-5G]
[2]
  IC50: 35 ± 1 nM

## CC(C)C[C@H](NC(=O)[C@H](CC(=O)O)NC(=O)CNC(=O)[C@H](CCCNC(=N)N)NC(=O)[C@H](CC(C)C)NC(=O)[C@H](CC(N)=O)NC(=O)[C@@H]1CCCN1C(=O)[C@@H](NC(=O)CNC(=O)[C@H](CC(N)=O)NC(=O)CNC(=O)CCOCCOCCOCCOCCOCCOCCOCCOCCOCCOCCOCCOCCOCCOCCOCCOCCOCCOCCOCCOCCOCCOCCOCCOCCOCCOCCOCCOCCNC(=O)[C@H](CCCCNC(=O)[C@H](CC(=O)O)NC(=O)CCCNC(=O)CCCc1ccc(I)cc1)NC(=O)CN1CCN(CC(=O)O)CCN(CC(=O)O)CCN(CC(=O)O)CC1)C(C)C)C(=O)N[C@@H](CCC(N)=O)C(=O)N[C@H](C(=O)N[C@@H](CC(C)C)C(=O)NCC(=O)N[C@@H](CCC(N)=O)C(=O)N[C@@H](CCCNC(=N)N)C(=O)N[C@H](C(=O)NCC(=O)N[C@@H](CCCNC(=N)N)C(=O)N[C@H](C(=O)NCCOCCOCCOCCOCCOCCOCCOCCOCCOCCOCCOCCOCCOCCOCCOCCOCCOCCOCCOCCOCCOCCOCCOCCOCCOCCOCCOCCOCCC(N)=O)[C@@H](C)O)C(C)C)C(C)C [[^68Ga]Ga DOTA-ABM-5G, metal not drawn]
[3]; 2 h p.i.
  uptake Blood: 8.89±0.89 % ID/g
  uptake BxPC-3 tumor: 9.39±1.9 % ID/g
  uptake Kidneys: 19.62±2.83 % ID/g
[3]; 2 h p.i., all organs
  uptake in stomach and intestines as compared to [^68Ga]Ga DOTA-5G: ≥ 4 fold
[3]; 4 h p.i.
  uptake BxPC-3 tumor: 10.35±2.6 % ID/g
  uptake Kidneys: 25.92±2.24 % ID/g
[4]
  remaining at 2 h: 100%
[5]; 2 h p.i.
  tumor uptake in PET/CT images compared to [^68Ga]Ga DOTA-5G: significantly higher
[5]; all time points (1 and 2 h, or 2 and 4 h p.i.)
  uptake in the BxPC-3 tumor, imaging and biodistribution: evident
[5]; especially at 2 h
  circulation in blood by PET imaging compared to [^68Ga]Ga DOTA-5G: increased circulation
